Reference: US9040660B2, “Long-acting gastrin derivatives” (priority 2010, dated 2015)
Where two headings read alike, the source gives them in different places.

Biological target: T1, CCK2 receptor (gastrin receptor) (Homo sapiens, UniProt P32239)
T1 construct: expressed in transfected cells; host or cells: NIH 3T3/CCK2R cells (mouse fibroblast line overexpressing CCK2R, kept under G418 selection)
T1 sequence (P32239 1-447): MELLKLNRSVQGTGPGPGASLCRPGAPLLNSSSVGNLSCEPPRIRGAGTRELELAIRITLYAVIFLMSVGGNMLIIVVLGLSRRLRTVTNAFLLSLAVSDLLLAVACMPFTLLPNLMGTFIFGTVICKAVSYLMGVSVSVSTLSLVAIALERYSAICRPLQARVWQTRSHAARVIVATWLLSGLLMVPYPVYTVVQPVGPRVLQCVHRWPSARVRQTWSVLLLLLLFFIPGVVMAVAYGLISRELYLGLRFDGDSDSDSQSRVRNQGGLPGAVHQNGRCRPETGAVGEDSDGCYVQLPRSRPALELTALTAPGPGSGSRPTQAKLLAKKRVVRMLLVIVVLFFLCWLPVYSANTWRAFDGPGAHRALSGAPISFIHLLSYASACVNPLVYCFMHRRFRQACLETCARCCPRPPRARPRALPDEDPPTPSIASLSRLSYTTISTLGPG
Assay type: cell-based
Settings: [Leu15] Gastrin-17 = 100, NIH 3T3/CCK2R cells, calcium mobilization
Method: Assay (I): In Vitro Receptor Potency In vitro receptor potency was measured using a CCK2 receptor mediated calcium mobilization assay. The CCK2 receptor (gastrin receptor) signals via the heterotrimeric G-protein, Gq, to activate phospholipase C(PLC). This leads to generation of inositol-1,4,5-trisphosphate (IP3) that releases calcium from intracellular stores. The primary rise in cytosolic calcium concentration is followed by activation of calcium dependent calcium channels in the plasma membrane allowing extracellular calcium to enter the cell. The rise in calcium concentration is transient, but it can be measured in situ by loading the cells with a calcium dependent fluorescent probe and monitored by the use of 96- or 384-well fluorescence plate readers. […] Beside the baseline fluorescence measurement, a second fluorescence measurement was performed after 30 seconds with both measurements using the […] […] Emin was calculated. The concentration-response relationship was calculated using a four-parameter logistic model using non linear regression analysis (Prism 5.02, GraphPad Software). In vitro receptor potency of gastrin compounds was measured using Assay (I).

Relative Receptor Potency (Table 2: N-terminal acylation/truncation series): 100 | Relative Receptor Potency (Table 3: acylation position (Lys scan) series): 100
Substance: [Leu15] Gastrin-17 [reference compound]
